# Literature values as cited in patent US11116209B2, “Polymeric composite-pesticide plugs and related methods” (priority 2017, dated 2021).
substance,measurement,value
emamectin benzoate,water solubility,about 24 mg/L
